Source: ChEMBL document CHEMBL1907987, “Human UDP-glucuronosyltransferases: metabolism, expression, and disease” (Annu Rev Pharmacol Toxicol, 2000)

Amino acid sequences for entries named in this document (tags omitted). Residues count along the entry.
UniProt P16662, 24-529 limits assumed: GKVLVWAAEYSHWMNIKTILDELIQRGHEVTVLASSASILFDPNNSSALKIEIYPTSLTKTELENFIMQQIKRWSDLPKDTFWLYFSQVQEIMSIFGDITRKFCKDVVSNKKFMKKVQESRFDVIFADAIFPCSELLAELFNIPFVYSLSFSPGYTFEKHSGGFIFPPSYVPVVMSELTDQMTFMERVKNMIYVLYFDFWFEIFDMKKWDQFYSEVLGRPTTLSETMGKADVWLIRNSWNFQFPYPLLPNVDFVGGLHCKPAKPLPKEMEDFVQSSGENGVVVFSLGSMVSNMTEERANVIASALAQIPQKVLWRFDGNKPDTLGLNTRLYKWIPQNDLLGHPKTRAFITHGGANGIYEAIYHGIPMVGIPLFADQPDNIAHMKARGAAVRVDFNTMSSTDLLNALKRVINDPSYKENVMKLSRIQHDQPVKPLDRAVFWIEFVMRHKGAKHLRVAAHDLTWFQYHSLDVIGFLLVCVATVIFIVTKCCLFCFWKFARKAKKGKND

Key:
[1] = target: T1, UDP-glucuronosyltransferase 2B7 (Homo sapiens, UniProt P16662); assay: Specific activity of expressed human recombinant UGT2B7Y; type: ADME; settings: recombinant enzyme
[2] = target: T1, UDP-glucuronosyltransferase 2B7; assay: Specific activity of expressed human recombinant UGT2B7H; type: ADME; settings: recombinant enzyme

In the case of `CO[C@]12CC[C@@]3(C[C@@H]1[C@](C)(O)C(C)(C)C)[C@H]1Cc4ccc(O)c5c4[C@@]3(CCN1)[C@H]2O5`, the Activity [1] is reported as 90 pm/min/mg.

In the case of `CO[C@]12CC[C@@]3(C[C@@H]1C(C)(C)O)[C@H]1Cc4ccc(O)c5c4[C@@]3(CCN1CC1CC1)[C@H]2O5`, the Activity [2] is reported as 257 pm/min/mg and 180 pm/min/mg and the Activity [1] is reported as 384 pm/min/mg.

“And” between values parts separate entries of the source, which are not always exact repeats. Equal values may be shown once.
